# In patent US11591313B2, “Inhibitors of ectonucleotide pyrophosphatase/phosphodiesterase 1 (ENPP1) and methods of use thereof” (Stingray Therapeutics, Inc., priority 2020, dated 2023):
# By UniProt entry, the sequences of proteins in these tests, tags left out. Where a name states a change or a piece, a line headed by the entry shows the natural chain unless it says otherwise.
# UniProt P22413: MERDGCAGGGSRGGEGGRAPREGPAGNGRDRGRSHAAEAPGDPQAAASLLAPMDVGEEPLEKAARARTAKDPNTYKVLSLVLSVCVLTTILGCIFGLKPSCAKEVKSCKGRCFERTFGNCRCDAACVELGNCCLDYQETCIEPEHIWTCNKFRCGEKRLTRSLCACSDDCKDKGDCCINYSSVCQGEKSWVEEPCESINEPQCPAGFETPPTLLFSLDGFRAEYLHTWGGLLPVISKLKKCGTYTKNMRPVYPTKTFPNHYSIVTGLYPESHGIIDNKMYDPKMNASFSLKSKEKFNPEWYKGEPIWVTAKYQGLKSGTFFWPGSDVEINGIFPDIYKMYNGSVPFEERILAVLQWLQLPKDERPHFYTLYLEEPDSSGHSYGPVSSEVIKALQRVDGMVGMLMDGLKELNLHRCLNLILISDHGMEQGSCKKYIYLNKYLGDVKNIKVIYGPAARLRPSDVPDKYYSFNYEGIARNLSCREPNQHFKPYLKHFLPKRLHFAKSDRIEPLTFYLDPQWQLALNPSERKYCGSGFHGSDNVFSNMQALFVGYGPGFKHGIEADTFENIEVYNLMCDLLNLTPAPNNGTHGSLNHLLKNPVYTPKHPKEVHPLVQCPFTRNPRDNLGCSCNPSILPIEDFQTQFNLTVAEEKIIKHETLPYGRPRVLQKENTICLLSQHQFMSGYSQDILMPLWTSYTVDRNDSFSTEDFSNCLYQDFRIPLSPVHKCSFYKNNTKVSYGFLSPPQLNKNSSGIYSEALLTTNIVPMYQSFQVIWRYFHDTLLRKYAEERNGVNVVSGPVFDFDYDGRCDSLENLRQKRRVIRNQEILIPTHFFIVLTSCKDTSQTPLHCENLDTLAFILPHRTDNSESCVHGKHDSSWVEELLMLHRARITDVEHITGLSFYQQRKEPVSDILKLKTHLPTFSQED
# Molecular target: Recombinant Human ENPP-1 Protein (Homo sapiens (Human), UniProt P22413)
# Assay: ENPP1 Assay (TMP)
# Assay type: biochemical
smiles,measurement,value
"COc1cc2ncnc(N3CC4CC3CN(S(N)(=O)=O)C4)c2cc1OC (stereo not shown) [Compound 027, 6-(6,7-dimethoxyquinazolin-4-yl)-3,6-diazabicyclo[3.2.1]octane-3-sulfonamide hydrochloride]",IC50,21 nM

# Where a name gives a salt, the structure may show the parent alone.
